Results reported in ChEMBL document CHEMBL1671815, “A practical use of ligand efficiency indices out of the fragment-based approach: ligand efficiency-guided lead identification of soluble epoxide hydrolase inhibitors” (J Med Chem, 2011).

The chains behind the UniProt entries cited, without tags or fusion partners.
UniProt P34913, whole entry: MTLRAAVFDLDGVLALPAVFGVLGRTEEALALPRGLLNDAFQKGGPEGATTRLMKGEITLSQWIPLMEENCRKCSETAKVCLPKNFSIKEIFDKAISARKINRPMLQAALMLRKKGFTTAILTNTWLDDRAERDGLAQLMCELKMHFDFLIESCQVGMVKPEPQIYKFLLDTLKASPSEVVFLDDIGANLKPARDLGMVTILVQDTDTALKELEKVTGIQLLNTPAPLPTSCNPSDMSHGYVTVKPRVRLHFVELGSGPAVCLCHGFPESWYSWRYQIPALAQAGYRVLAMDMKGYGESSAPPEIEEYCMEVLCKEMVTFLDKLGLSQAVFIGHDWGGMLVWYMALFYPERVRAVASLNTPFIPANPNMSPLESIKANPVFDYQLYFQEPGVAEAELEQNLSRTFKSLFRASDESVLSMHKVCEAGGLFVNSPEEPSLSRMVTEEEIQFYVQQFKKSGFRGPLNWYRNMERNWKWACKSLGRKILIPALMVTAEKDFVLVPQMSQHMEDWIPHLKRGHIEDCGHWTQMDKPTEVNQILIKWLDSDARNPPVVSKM

Biological target: Bifunctional epoxide hydrolase 2 (Homo sapiens, UniProt P34913)
Experiment: Inhibition of human soluble epoxide hydrolase in cell free system

IC50 (read-out: IC50): 565 nM | IC50 (read-out: pIC50 (converted)): 562 nM
Compound: N#Cc1ccc(C(=O)N[C@H]2C[C@@H]2c2ccccc2)cc1 (racemic)
